Measurements: ChEMBL document CHEMBL1129511 (J Med Chem, 1996)

System: LoVo
Test: Inhibitory concentration was evaluated against colorectal tumar cell line LoVo
Type: functional, cell-based, Homo sapiens
Procedure, shortened: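 Cells were exposed to compound in microtitre plates for 1 h, washed, then grown a further 3 days at 37 °C. They were fixed with TCA, and adherent cellular protein was measured by SRB staining. IC50 is the concentration giving 50% growth inhibition.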

| SMILES | IC50 |
| --- | --- |
| O=C(O)c1ccc(N(CCCl)CCCl)cc1 | > 100 µM |
| O=C(O)Cc1ccc(N(CCCl)CCCl)cc1 | 19 µM |
| Nc1ccc(N(CCCl)CCCl)cc1 | 1.8 µM |
| Sc1ccc(N(CCCl)CCCl)cc1 | 100 µM |
| Oc1ccc(N(CCCl)CCCl)cc1 | 1 µM |
